Earlier results as cited in patent publication US20230167447A1, “Compositions for FNIP1/FNIP2 Gene Modulation and Methods Thereof” (Genetic Intelligence, Inc, priority 2021, published 2023).

System: ALS patients
Conditions: in most cases

For `Nc1nc2ccc(OC(F)(F)F)cc2s1` [Riluzole, riluzole], which “extension of survival of ALS patients” value is on record?
Its value is 2-3 months.
